One assay has as its target DYRK1B (Homo sapiens (Human), UniProt Q9Y463). As to the kind of experiment: DYRK1B kinase assay (HotSpot, Reaction Biology). Type of assay: biochemical.
In the next assay the target is DYRK1A (Homo sapiens (Human), UniProt Q13627). As to the kind of experiment: DYRK1A kinase assay (HotSpot, Reaction Biology). Type of assay: biochemical. The conditions noted are these: purified recombinant kinase, 10 μM ATP, room temperature 120 min.

Amino acid sequences for entries named in this document (tags omitted).
UniProt Q9Y463, whole entry: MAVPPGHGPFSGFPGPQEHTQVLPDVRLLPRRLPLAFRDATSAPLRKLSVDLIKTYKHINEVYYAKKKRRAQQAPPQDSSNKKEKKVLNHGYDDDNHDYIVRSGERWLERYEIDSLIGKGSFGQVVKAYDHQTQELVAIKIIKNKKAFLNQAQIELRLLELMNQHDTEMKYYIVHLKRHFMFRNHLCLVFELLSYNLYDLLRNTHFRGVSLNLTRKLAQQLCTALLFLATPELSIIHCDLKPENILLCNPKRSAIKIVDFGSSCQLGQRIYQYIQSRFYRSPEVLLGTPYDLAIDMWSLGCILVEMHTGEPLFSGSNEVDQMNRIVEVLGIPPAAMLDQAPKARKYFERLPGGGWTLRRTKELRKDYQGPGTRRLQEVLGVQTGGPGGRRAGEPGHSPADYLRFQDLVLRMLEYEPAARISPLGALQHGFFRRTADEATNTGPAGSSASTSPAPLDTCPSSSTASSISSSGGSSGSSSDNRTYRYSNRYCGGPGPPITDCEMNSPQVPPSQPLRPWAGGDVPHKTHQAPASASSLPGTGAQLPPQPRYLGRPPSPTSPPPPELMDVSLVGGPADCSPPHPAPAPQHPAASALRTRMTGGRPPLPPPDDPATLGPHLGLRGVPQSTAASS

The values below come from patent US9446044B2, “DYRK1 inhibitors and uses thereof” (DIAXONHIT, priority 2011, dated 2016).

Usually IC50 stands for the concentration needed to halve the response being measured.

On DYRK1B, `COC(=N)c1nc2ccc3ncnc(N(C)c4ccc(OC)cc4)c3c2s1` [Compound 46, Methyl 9-((4-methoxyphenyl)(methyl)amino)thiazolo[5,4-f]quinazoline-2-carbimidate] yielded an IC50 of 84.9 nM.
For `COC(=N)c1nc2ccc3ncnc(N(C)c4ccc(OC)c(OC)c4)c3c2s1` [Compound 52, Methyl 9-((3,4-dimethoxyphenyl)(methyl)amino)thiazolo[5,4-f]quinazoline-2-carbimidate], at DYRK1B, the IC50 was determined as 4460 nM.
On to `CCN1/C(=C/C(C)=O)Sc2ccc(OC)cc21` [TG003, reference compound], for which the IC50 on DYRK1A was 24 nM.
